Reference: US20040254162A1, “Oxazolidinone derivatives as antimicrobials” (priority 2001, published 2004)

Test system: Clostridium camis
Test: Agar dilution MIC, anaerobes
Format: cell-based
Conditions: single isolates, anaerobic agar dilution

CC1(C)S[C@@H]2[C@H](NC(=O)[C@H](N)c3ccc(O)cc3)C(=O)N2[C@H]1C(=O)O [Amox]
MIC Clostridium camis: <=.125 μg/ml
